From PubChem BioAssay
MLL AF4-AF9 inh: MLL-AF4/AF9 protein interaction inhibition | AlphaScreen, biotin-AF4 peptide binding to FLAG-AF9 | AID 651704 | actives 0.47% (n = 350,000) | inhibition, % at 10 µM | P42568;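 active = every replicate reaching a set inhibition limit, whatever the replicate mean, cut at about 25% in these data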;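 note: 0% = plate neutral control median and 100% = total signal loss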
Yeast UUG start-1: alters start codon recognition fidelity in yeast; S. cerevisiae UUG-firefly luciferase reporter, luminescence/redox ratio; activity score, % at 18.7 µM; actives 0.13% (n = 350,000);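 active means replicate mean at a twofold rise or more, about +100% in these data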;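 further: firefly luciferase made from a UUG start codon reports start codon fidelity; reporter light over untreated wells divided by growth signal over untreated wells; some hits fall short of that in this replicate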
S100A4 inh HTS: blocks human S100A4 binding to myosin IIA peptide; inhibition, % at 10.7 µM; S100A4/TAMRA-MyoIIA peptide fluorescence polarization; actives 0.14% (n = 360,000); AID 652163; P26447;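 active = mean inhibition of at least 70% across replicates, with every replicate also reaching that level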
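Material: human S100A4 monomer with TAMRA-labelled myosin IIA peptide; buffer or medium: HEPES pH 7.2 with CaCl2, KCl, NaCl, DTT, Triton; compound dosing: one concentration per compound; schedule: 5 min incubation before reading; benchmarks: neutral control DMSO, positive control TFP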
E-sel inducer: E-selectin induction on HUVECs. P16581. HUVEC E-selectin immunofluorescence imaging; normalized: neutral wells 0, TNF-alpha wells 100. activation, % at 7.58 µM. actives 0.37% (n = 260,000);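 active = mean E-selectin-positive cell signal at least 10% of the positive control, reached in at least 60% of replicates, without over 20% cell loss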
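Test system: HUVEC; input: 3,000 HUVEC/well; measured by: immunofluorescence imaging; read-out: % PE-positive cells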
ERAP1 inh: blocks human ERAP1 aminopeptidase activity; inhibition, % at 10.7 µM; actives 0.15% (n = 340,000); Q9NZ08; recombinant ERAP1, Leu-AMC fluorescence, 60 min;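 active = mean replicate inhibition of at least 30%, or all replicates individually reaching that 30% level; inactive = mean below 30% and not every replicate reaching it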;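 note: 0% = neutral control wells and 100% = L-leucinethiol positive control wells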
ARNT-TACC3 inh: ARNT/TACC3 interaction disruption; Q9Y6A5; AlphaScreen His-ARNT PAS-B/GST-TACC3 binding, luminescence; TACC3 fragment carries E629A point mutation; inhibition, % at 9.99 µM; actives 0.66% (n = 390,000);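 active = mean inhibition of replicates at least 50% and at least half of replicates each reaching 50%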;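 note: 0% = complete ARNT plus TACC3 wells and 100% = ARNT alone without TACC3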
Yeast UUG start-2: alters UUG start codon use in yeast. 540 tested, under 10 active. AID 652061. S. cerevisiae UUG-start firefly luciferase, luminescence, 4 h; 100% means double the DMSO signal. activation, % at 38 µM. shares compounds with Yeast UUG start-1;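 active = signal increase whose fitted curve reaches an absolute level of 40 at a concentration under 10 µM; inactive = activity opposite to the expected increase, or the rest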
* hit, by the source's call; i = inactive; . = not tested or not shown. The list is not random: actives were taken first. Their share in the collection is about 1.3%.

1. COc1ccc(-c2ccc3c(c2)O[C@H](CN(C)C(=O)c2ccccc2F)[C@H](C)CN([C@H](C)CO)S3(=O)=O)cc1
2. COc1ccc(-c2ccc3c(c2)O[C@H](CN(C)C(=O)c2ccccc2F)[C@H](C)CN([C@@H](C)CO)S3(=O)=O)cc1
3. COc1ccc(NC(=O)N(C)C[C@@H]2Oc3cc(-c4ccncc4)ccc3S(=O)(=O)N([C@@H](C)CO)C[C@@H]2C)cc1
4. Cc1ccccc1-c1ccc2c(c1)O[C@H](CN(C)C(=O)c1ccccn1)[C@H](C)CN([C@H](C)CO)S2(=O)=O
5. CN1CCN(CC#CC(C)(O)C2CC3C=CC2C3)CC1 (stereo not drawn)
6. C/C(=N\NC(=O)CC1N=C(Cc2ccccc2)NNC1=O)c1ccc(C)cc1 (stereo not drawn)

| assay / compound | 1 | 2 | 3 | 4 | 5 | 6 |
| --- | --- | --- | --- | --- | --- | --- |
| MLL AF4-AF9 inh | 10 | 1 | 0 | 2 | . | . |
| Yeast UUG start-1 | 25* | 27 | -6 | 139* | 166* | 372* |
| S100A4 inh HTS | -1 | -4 | -2 | 12 | . | . |
| E-sel inducer | 0 | 0 | 0 | -1 | . | . |
| ERAP1 inh | -1 | -1 | 1 | 2 | . | . |
| ARNT-TACC3 inh | 10 | -7 | 2 | 7 | 1 | 7 |
| Yeast UUG start-2 | i | . | . | i | 0 | 3 |

7. C/C(=N\NC(=O)CC1N=C(Cc2ccccc2)NNC1=O)c1ccc(Br)cc1 (stereo not drawn)
8. C1CN(c2nc3nonc3n3nnnc23)CCO1
9. C[C@H]1CN([C@@H](C)CO)C(=O)c2cccc(NC(=O)C3CCOCC3)c2O[C@@H]1CN(C)S(=O)(=O)c1cccs1
10. COC(=O)NNC(=O)C12CC3CC(CC(C3)C1)C2
11. CCOC(=O)NNC(=O)C12CC3CC(CC(C3)C1)C2
12. CNC[C@@H]1Oc2ncc(-c3ccc(C)cc3)cc2C(=O)N([C@@H](C)CO)C[C@@H]1C

| assay / compound | 7 | 8 | 9 | 10 | 11 | 12 |
| --- | --- | --- | --- | --- | --- | --- |
| MLL AF4-AF9 inh | -1 | . | -2 | 0 | -1 | 4 |
| Yeast UUG start-1 | . | 442* | 2 | -8 | 489* | -2 |
| S100A4 inh HTS | -4 | . | -3 | -1 | -7 | -10 |
| E-sel inducer | 0 | . | 0 | 0 | 4 | 1 |
| ERAP1 inh | 3 | . | 6 | 2 | 0 | -1 |
| ARNT-TACC3 inh | -11 | 16 | -5 | . | . | 12 |
| Yeast UUG start-2 | . | 8 | . | . | -10 | . |

13. COC(=O)c1ccc(COC(=O)c2ccc(CO)cc2)o1
14. CC(C)C[C@@H](CN)NC(=O)c1nc[nH]c1C(=O)N[C@@H](Cc1c[nH]c2ccccc12)C(=O)CNC[C@H](C)NC(=O)c1nc[nH]c1C(=O)N[C@@H](CC(=O)O)C(=O)O
15. CC(=O)N1[C@H](CO)[C@H](c2ccc(C3=CCCC3)cc2)[C@@H]1CNC(=O)CC1CC1
16. COc1ccc(OC)c(C(C(=O)NCc2ccco2)N(C(=O)Cn2nnc3ccccc32)C(C)C)c1 (stereo not drawn)
17. COc1ccc(NC(=O)c2noc(C(C)C)c2[N+](=O)[O-])cc1
18. CC(=O)c1ccc(NC(=O)c2noc(C(C)C)c2[N+](=O)[O-])cc1

| assay / compound | 13 | 14 | 15 | 16 | 17 | 18 |
| --- | --- | --- | --- | --- | --- | --- |
| MLL AF4-AF9 inh | -1 | 1 | -4 | . | 1 | -2 |
| Yeast UUG start-1 | 185* | 180* | . | 196* | 528* | . |
| S100A4 inh HTS | -3 | 3 | -1 | . | 4 | -30 |
| E-sel inducer | . | 0 | 0 | . | . | 0 |
| ERAP1 inh | -2 | 1 | -2 | . | -1 | -4 |
| ARNT-TACC3 inh | . | 9 | . | 26 | . | -1 |
| Yeast UUG start-2 | -1 | 7 | . | 18 | -3 | . |

Part of the list above in order of molecular weight, smallest number first:
18. CC(=O)c1ccc(NC(=O)c2noc(C(C)C)c2[N+](=O)[O-])cc1
15. CC(=O)N1[C@H](CO)[C@H](c2ccc(C3=CCCC3)cc2)[C@@H]1CNC(=O)CC1CC1
14. CC(C)C[C@@H](CN)NC(=O)c1nc[nH]c1C(=O)N[C@@H](Cc1c[nH]c2ccccc12)C(=O)CNC[C@H](C)NC(=O)c1nc[nH]c1C(=O)N[C@@H](CC(=O)O)C(=O)O

| assay / compound | 18 | 15 | 14 |
| --- | --- | --- | --- |
| MLL AF4-AF9 inh | -2 | -4 | 1 |
| Yeast UUG start-1 | . | . | 180* |
| S100A4 inh HTS | -30 | -1 | 3 |
| E-sel inducer | 0 | 0 | 0 |
| ERAP1 inh | -4 | -2 | 1 |
| ARNT-TACC3 inh | -1 | . | 9 |
| Yeast UUG start-2 | . | . | 7 |

The listing continues.
19. CCN(CC)CCC#CC(O)(c1ccccc1)c1ccccc1
20. C[N+]1(CC#CC(O)(c2ccccc2)c2ccccc2)CCCC1
21. CC(C)[N+](C)(C)CC#CC(O)(c1ccccc1)c1ccccc1
22. OC(C#Cc1ccccc1)(c1ccccc1)c1ccccc1
23. Cc1noc(C)c1S(=O)(=O)N1CCCC(C(=O)Nc2cccnc2)C1 (stereo not drawn)
24. CCNC(=O)Nc1ccc2c(c1)C(=O)N(C)[C@H]1CC[C@H](CC(=O)NCc3cccc(F)c3)O[C@H]1CO2
25. Cc1c(C(=O)C(C)C)n(C)c2ccccc12
26. COCC(=O)N[C@H]1CC[C@H](CC(=O)NCc2ccc(Cl)cc2)O[C@@H]1CO

| assay / compound | 19 | 20 | 21 | 22 | 23 | 24 | 25 | 26 |
| --- | --- | --- | --- | --- | --- | --- | --- | --- |
| MLL AF4-AF9 inh | . | -3 | -2 | -3 | . | . | . | -1 |
| Yeast UUG start-1 | . | . | . | -9 | 614* | -14 | 435* | -1 |
| S100A4 inh HTS | . | 1 | 2 | -1 | . | . | . | -7 |
| E-sel inducer | . | 0 | . | 0 | . | 0 | . | 0 |
| ERAP1 inh | . | 23 | 5 | -3 | . | . | . | 1 |
| ARNT-TACC3 inh | 2 | -3 | -2 | -5 | 1 | -35 | 13 | 34 |
| Yeast UUG start-2 | . | 5 | 7 | . | -4 | . | 18 | . |
